# An excerpt weighted towards active compounds, which were near 2.1% of everything screened.
# Wnt bcat act: Wnt/beta-catenin pathway activators, primary screen, cell-based, plate reader, single point; AID 743398, 2014; Wnt/beta-catenin reporter cell assay, activator; hit rate 1.2% among 300,000; activation, % at 9.35 µM; in the data active means activation above about 30%, passing the limit was not always enough; inconclusive means no clear call, values can overlap the other calls;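 further: 0% = neutral control wells and 100% = positive control wells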
# MITF TRPM1 inh: inhibitors of MITF-dependent TRPM1 promoter reporter, primary screen, cell-based, SK-MEL-5, single point, luciferase | AID 488899, 2010 | SK-MEL-5 TRPM1 promoter luciferase, 24 h | hit rate 0.83% among 330,000 | inhibition, % at 12.5 µM;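 active means mean inhibition across replicates of 60% or more, whatever share of single replicates reaches that level; inconclusive means some that reach 60%, reason not given; inactive means mean inhibition across replicates below 60%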
# PGC1a acetyl inh: inhibitors of PGC1a acetylation signal, primary screen, cell-based, U2OS, AlphaScreen, inhibitor mode; AlphaScreen anti-acetyl-lysine; with virally co-expressed GCN5 acetyltransferase; inhibition, % at 15.6 µM; hit rate 0.17% among 350,000; AID 651687, 2012;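 active means every replicate shows inhibition of at least 40%; inconclusive means mean inhibition at least 40% but some replicate below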;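 further: 0% = neutral control wells and 100% = positive control wells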
# miR-122 sensor: miR-122 Renilla sensor signal increase in Huh7, primary screen, miR-122 inhibitor project, cell-based, single point, plate reader; Huh7 miR-122 Renilla luciferase sensor, 48 h; neutral wells = 0, positive control = 100; activation (reporter increase), % at 12.5 µM; hit rate 0.3% among 340,000; AID 602342, 2012;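 active means mean replicate activation score at least 90 and every replicate individually at or above 90; inconclusive means only one of the two criteria met; inactive means neither criterion met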;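 further: higher luciferase means less miR-122 activity so hits act as miR-122 inhibitors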
# MITF TRPM1 HTS: activators of MITF-driven TRPM1 promoter reporter, primary screen, cell-based, SK-MEL-5, luciferase, single point. SK-MEL-5 TRPM1-promoter luciferase, 24 h; % of positive control, neutral wells = 0. hit rate 0.75% among 300,000. AID 588334, 2011. activation, % at 12.5 µM;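 active means mean activation of at least 80% with every replicate also reaching 80%; inconclusive means mean reaches 80% but some replicate falls short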;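 further: 0% = neutral control wells and 100% = parthenolide positive control wells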
# UUG fidelity: modulators of yeast start codon fidelity, primary screen, whole organism, S. cerevisiae, single point, plate reader | AID 602363, 2012 | S. cerevisiae UUG-firefly luciferase reporter, luminescence/redox ratio | activity score, % at 18.7 µM | hit rate 0.13% among 350,000;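 active = replicate mean at a twofold rise or more, about +100% in these data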;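 also: firefly luciferase made from a UUG start codon reports start codon fidelity; reporter light over untreated wells divided by growth signal over untreated wells; some hits fall short of that in this replicate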
# Active calls of the source: *; ? = inconclusive; . = no result; [ ] = another dose, or the depositor's remark.
# Every second line gives: Wnt bcat act | MITF TRPM1 inh | PGC1a acetyl inh | miR-122 sensor | MITF TRPM1 HTS | UUG fidelity
> COC(=O)[C@H]1[C@H](CO)[C@H]2Cn3c(ccc(-c4ccccc4F)c3=O)[C@@H]1N2C(C)=O
    . | . | . | 1[16.7 µM] | . | .
> CCOC(=O)c1c(-n2c(C)cc(C=C3C(=O)NC(=S)NC3=O)c2C)sc2c1CCCC2
    . | 64* | -9 | -1 | -62 | -20
> C/C=C/c1ccc([C@H]2[C@H]3CN(C(=O)Cc4ccncc4)CCCCN3[C@H]2CO)cc1
    . | . | 2 | 11[16.7 µM] | . | -5
> Cc1ccc2c(c1N)C(=O)c1ccccc1C2=O
    44* | -95 | 0 | 3 | 95* | -1
> CCOc1ccc(-n2c(-c3cccs3)nc3ccccc3c2=O)cc1
    2 | -5 | -12 | 10 | 2 | .
> CCn1nc(-c2cccs2)nc2c(=O)n(C)c(=O)nc1-2
    . | 100* | ? | -14 | -100 | -92
> S=C=Nc1cccc(C2(N3CCCCC3)CCCCC2)c1
    0 | 75* | -3 | 0 | -74 | -10
> O=C(NC[C@H]1CC[C@H]2[C@H](CN2Cc2cccnc2)O1)C1CC1
    . | . | 2 | . | . | .
> CCC(C)C1NC(=O)C(NC(=O)C(CC(C)C)N(C)C(=O)C2CCCN2C(=O)C(C)O)C(C)OC(=O)C(Cc2ccc(OC)cc2)N(C)C(=O)C2CCCN2C(=O)C(CC(C)C)NC(=O)[C@H](C)C(=O)[C@H](C(C)C)OC(=O)CC1O (some centres not stated)
    -9 | 105* | 33 | -14 | . | .
> COC(=O)[C@@H]1[C@@H](CO)[C@@H]2Cn3c(ccc(-c4ccccc4)c3=O)[C@H]1N2S(=O)(=O)c1ccccc1C
    . | . | . | -2[16.7 µM] | . | .
> CCCCCCCSc1cc(OC)c(CCNC)cc1OC
    . | 102* | 7 | -7 | -101 | -4
> COC(=O)[C@@H]1[C@@H](CO)[C@@H]2Cn3c(ccc(-c4ccccc4)c3=O)[C@H]1N2CC1CC1
    . | . | . | 0[16.7 µM] | . | 9
> COc1ccc(-c2ccc3c(c2)CN(C(=S)NCCc2ccccc2)Cc2cnnn2-3)cc1
    -2 | . | -26 | 119* | . | -12
> COc1ccc(-c2ccc3c(c2)CN(C(=O)CCc2ccccc2)Cc2cnnn2-3)cc1
    -2 | . | -25 | 3 | . | -18
> O=C(O)[C@@H]1[C@@H](CO)[C@@H]2Cn3c(ccc(-c4cccnc4)c3=O)[C@H]1N2S(=O)(=O)c1ccccc1F
    . | . | . | 3[16.7 µM] | . | .
> O=c1[nH]c(=S)[nH]c(O)c1N=Nc1ccc(S(=O)(=O)N2CCc3ccccc32)cc1
    5 | 64* | . | . | -63 | .
> COc1ccc(CC2NCC(O)C2OC(C)=O)cc1 (configuration not stated)
    -3 | 91* | 92* | -14 | -91 | -7
> CCOP(=O)(CCP(=O)(OCC)OCC)OCC.C[CH2][Sn]([Cl])([Cl])[CH2]C
    -5 | 85* | -5 | 22 | . | .
> CCOC(=O)[C@@H]1[C@@H]2NC(=S)N[C@@]1(C)Oc1ccccc12
    . | . | 9 | . | . | 3
> C=C1C(=O)O[C@@H]2C[C@@H](C)[C@@H]3C=CC(=O)[C@@]3(C)[C@@H](O)[C@H]12
    -20 | 106* | 47* | -18 | -106 | -28
> C[C@H]1CCC/C=C/[C@@H]2C[C@H](O)C[C@H]2[C@H](O)/C=C/C(=O)O1
    -22 | 81* | 69* | -10 | -81 | -37
> C[C@H]1CCCC(=O)CCC/C=C/c2cc(O)cc(O)c2C(=O)O1
    -2 | 7 | . | -3 | -6 | 3
> CCN(CC)c1ccc(/C=C/[N+](=O)[O-])cc1
    0 | 16 | . | -5 | -14 | -19
> O=[N+]([O-])/C=C/c1c(Cl)cccc1Cl
    0 | 111* | . | . | -110 | .
> O=P(Nc1ccccc1)(Nc1ccccc1)Oc1ccc(Cl)cc1
    -1 | -6 | -7 | 322* | 8 | 1
> O=[N+]([O-])c1c(Cl)c(Cl)c(Cl)c(Cl)c1Cl
    1 | 9 | 7 | 6 | -6 | -12
> Nc1cc(Cl)c2nonc2c1[N+](=O)[O-]
    -18 | 93* | . | . | -92 | .
> C[C@H]1CN([C@@H](C)CO)C(=O)CCCn2nncc2CO[C@@H]1CN(C)C(=O)Oc1ccc2ccccc2c1
    . | . | 6 | -5[16.7 µM] | . | 2
> COc1ccc(C#Cc2ccc([C@@H]3[C@H]4CN(C(=O)Cc5ccncc5)CCCCN4[C@H]3CO)cc2)cc1
    . | . | 6 | 5[16.7 µM] | . | 2
> Cc1ccc(OCC(=O)Nc2ccc(Cl)cc2C(=O)c2ccccc2)cc1
    . | 4 | 2 | -3 | 0 | -3
> Cc1ccc(C(=O)Nc2ccc(Cl)cc2C(=O)c2ccccc2)cc1
    . | 18 | -3 | 114* | -19 | -9
> COc1ccc(C(O)(c2cncnc2)C2CC2)cc1 (configuration not stated)
    . | . | 10 | . | . | .
> N#CC1C(C#N)C2CCC1C1C2N1c1ccccc1 (configuration not stated)
    47* | 7 | 4 | -4 | -7 | -17
> Cc1cc(-c2ccccc2)cc(-c2ccccc2)[n+]1CCc1ccccc1
    -7 | 65* | -10 | 1 | -64 | 3
> Fc1ccc(C[n+]2c(-c3ccccc3)cc(-c3ccccc3)cc2-c2ccccc2)cc1
    0 | . | . | . | . | .
> Clc1ccc(C[n+]2c(-c3ccccc3)cc(-c3ccccc3)cc2-c2ccccc2)cc1
    -18 | 92* | -27 | -18 | -91 | -7
> CCOc1ccc(-c2cc(C)[n+](CCc3ccc(OC)c(OC)c3)c(-c3ccc(OCC)cc3)c2)cc1
    2 | 97* | -230 | -17 | -95 | -9
> CCOc1ccc(-c2cc(C)[n+](CCO)c(-c3ccc(OCC)cc3)c2)cc1
    0 | 63* | . | 0 | -62 | -3
> CCC(=O)N1[C@@H]2Cn3c(ccc(-c4cccc(F)c4)c3=O)[C@H]1[C@@H](C(=O)OC)[C@@H]2CO
    . | . | . | 6[16.7 µM] | . | .
> COc1ccc(C#Cc2ccc([C@H]3[C@H]4CN(C(=O)Cc5ccncc5)CCCCN4[C@H]3CO)cc2)cc1
    . | . | 5 | -14[16.7 µM] | . | 11

# Structural class, the entries above containing a nitro group on carbon.
# Every second line gives: Wnt bcat act | MITF TRPM1 inh | PGC1a acetyl inh | miR-122 sensor | MITF TRPM1 HTS | UUG fidelity
> CCN(CC)c1ccc(/C=C/[N+](=O)[O-])cc1
    0 | 16 | . | -5 | -14 | -19
> O=[N+]([O-])/C=C/c1c(Cl)cccc1Cl
    0 | 111* | . | . | -110 | .
> O=[N+]([O-])c1c(Cl)c(Cl)c(Cl)c(Cl)c1Cl
    1 | 9 | 7 | 6 | -6 | -12
> Nc1cc(Cl)c2nonc2c1[N+](=O)[O-]
    -18 | 93* | . | . | -92 | .

# Following part.
# Every second line gives: Wnt bcat act | MITF TRPM1 inh | PGC1a acetyl inh | miR-122 sensor | MITF TRPM1 HTS | UUG fidelity
> COc1ccc(CCNC2(C#N)CCCCC2)cc1OC
    -1 | . | 84* | 2 | . | 2
> CCN1/C(=C\C=C\C2=[N+](CC)c3ccccc3C2(C)C)C(C)(C)c2ccccc21
    . | 102* | -60 | . | -102 | -32
> COC(/C(C)=C/C=C/C(C)=C/c1coc(C)n1)C(C)C1CC(O)C2(C)OC2C=CC(C)C2CC(CC(=O)O2)CC2OC2C(=O)O1 (configuration not stated)
    -7 | 65* | 9 | -1 | . | .
> COC(=O)[C@@H]1[C@@H](CO)[C@@H]2Cn3c(ccc(C4=CCCC4)c3=O)[C@H]1N2C(=O)CC1CC1
    . | . | . | -5[16.7 µM] | . | 3
